Assay results taken from patent publication US20050009060A1, “Multiplexed multitarget screening method” (priority 2003, published 2005).

By UniProt entry, the sequences of proteins in these tests, tags left out.
UniProt P32245, whole entry, species assumed: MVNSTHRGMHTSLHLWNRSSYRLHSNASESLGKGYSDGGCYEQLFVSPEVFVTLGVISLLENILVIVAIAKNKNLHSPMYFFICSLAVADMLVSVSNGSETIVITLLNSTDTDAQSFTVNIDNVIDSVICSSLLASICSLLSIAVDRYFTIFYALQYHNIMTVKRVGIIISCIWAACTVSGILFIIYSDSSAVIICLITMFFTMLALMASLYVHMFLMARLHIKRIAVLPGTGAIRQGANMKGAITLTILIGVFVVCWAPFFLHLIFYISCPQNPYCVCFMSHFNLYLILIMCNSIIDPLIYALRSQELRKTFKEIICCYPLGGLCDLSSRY

Molecular target: T1, melanocortin 4 receptor (MC4R) (Homo sapiens, UniProt P32245)
T1 construct: expressed in transfected cells; host or cells: HEK293
Test: Ca2+i levels by flow cytometry in HEK293 cells transfected with MC4R
Type: cell-based
Conditions: 1 uM
Description: When measuring Ca^2+i responses, the power of single cell analysis provides enhanced resolving power in terms of the ability to detect weakly active compounds. […] In FIG. 21, each dot represents a single cell, where more than one cell per pixel space is represented by transitions from darker to lighter shading in a black-and-white plot, and by transitions from red to yellow to white coloring in a color plot (these transitions are also captured quantitatively). […] In FIG. 21, the solid line represents the average of the sampled population at each bin in the x-axis (time) as calculated from the single cell data. An instrument that measures the average response of the population over time, e.g., a spectrofluorimeter or a fluorescent imaging plate reader (FLIPR™), produces a plot like that of the solid line, whereas single cell analysis as provided herein yields different information. The average response measured by, e.g., a spectrofluorimeter or a FLIPR™ implies that the cellular response in all the cells in a sample develops relatively slowly over time, eventually reaching a peak value that is followed by a slow decline to the basal level. […] This behavior is consistently seen for all GPCRs analyzed at the single cell level as provided herein. […]

NDP-αMSH [NDP-aMSH]
Ca2+i response of single cells to ligand: only a subset of the cells respond to the ligand
